Entries after “also recorded” stand apart in the source; their conditions may differ.
Legend:
[1] = Investigation of plasma stability (Tam-labeled peptides, RP-HPLC); assay type: in vitro ADME; conditions: human blood plasma, 37 °C, up to 24 h
[2] = tested on: HEK293 cells stably transfected with CMKLR1-eYFP; assay: Resazurin-based cell viability assay, HEK293-CMKLR1; conditions: HEK293-CMKLR1, 72 h; read-out: IC50 (toxicity)
Protocol: HEK293 cells stably transfected with CMKLR1-eYFP, empty HEK293 cells (15,000 cells in 100 µL suspension/well), or HMEC-1 cells (5000 cells in 100 µL suspension/well) in their respective cell culture media were seeded in 96 well plates (coated with poly D-lysine for HEK cells) and incubated at standard conditions overnight. Afterward, cells were incubated with peptides or MTX dissolved in cell culture media, and a medium without peptides was used as a control. […] Ethanol or media was removed and a 50 µL resazurin-based in vitro toxicology assay kit (Sigma-Aldrich, St. Lous, MO, USA) in cell culture media (1:10) was added to each well. After 1 h incubation time, the conversion of the resazurin was detected by measuring the fluorescence intensity at λem = 590 nm. All experiments were performed in duplicates and each experiment was repeated at least three times. Nonlinear regression was calculated using GraphPad Prism 5, curves were normalized to untreated and ethanol-treated cells.

HMEC-1 cells = assay: Resazurin-based cell viability assay, HMEC-1; conditions: HMEC-1 cells endogenously expressing CMKLR1, 72 h; read-out: IC50 (toxicity)
Protocol: (§1) HEK293 cells stably transfected with CMKLR1-eYFP, empty HEK293 cells (15,000 cells in 100 µL suspension/well), or HMEC-1 cells (5000 cells in 100 µL suspension/well) in their respective cell culture media were seeded in 96 well plates (coated with poly D-lysine for HEK cells) and incubated at standard conditions overnight. Afterward, cells were incubated with peptides or MTX dissolved in cell culture media, and a medium without peptides was used as a control. After 72 h, cells of the negative control were treated with ethanol for 3 min. Ethanol or media was removed and a 50 µL resazurin-based in vitro toxicology assay kit (Sigma-Aldrich, St. Lous, MO, USA) in cell culture media (1:10) was added to each well. After 1 h incubation time, the conversion of the resazurin was detected by measuring the fluorescence intensity at λem = 590 nm. All experiments were performed in duplicates and each experiment was repeated at least three times. Nonlinear regression was calculated using GraphPad Prism 5, curves were normalized to untreated and ethanol-treated cells.

hCMKLR1 = target: T1, hCMKLR1 (Homo sapiens, UniProt Q99788); assay: Calcium flux assay in COS-7 cells transfected with hCMKLR1_eYFP_GαΔ6qi4myr; conditions: Ca^2+ flux; for EC50: normalized to chemerin-9 curve
T1 sequence (Q99788 1-373): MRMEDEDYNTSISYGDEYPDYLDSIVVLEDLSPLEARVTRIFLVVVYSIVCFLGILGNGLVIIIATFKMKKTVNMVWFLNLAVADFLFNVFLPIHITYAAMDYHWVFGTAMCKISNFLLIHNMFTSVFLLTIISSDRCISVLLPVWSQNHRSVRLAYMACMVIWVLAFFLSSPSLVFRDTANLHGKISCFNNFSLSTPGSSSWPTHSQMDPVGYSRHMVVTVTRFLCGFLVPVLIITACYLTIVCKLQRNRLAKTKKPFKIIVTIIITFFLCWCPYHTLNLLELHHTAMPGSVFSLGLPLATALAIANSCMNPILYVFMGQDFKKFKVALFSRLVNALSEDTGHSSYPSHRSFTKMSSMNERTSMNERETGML

human blood plasma = conditions: 37 °C, up to 24 h
[3] = tested on: untransfected HEK293 cells; assay: Resazurin-based cell viability assay, untransfected HEK293; conditions: HEK293 cells devoid of CMKLR1, 72 h; read-out: IC50 (toxicity)
Protocol: as §1

With `CN(C)c1ccc2c(c1)Oc1cc(N(C)C)ccc1C21OC(=O)c2ccc(C(=O)NCCCC[C@@H]3NC(=O)[C@H](Cc4ccccc4)NC(=O)[C@H](CCC(N)=O)NC(=O)[C@H](NC(=O)[C@@H]4CCCN4C(=O)[C@H](Cc4ccccc4)NC(=O)[C@H](N)Cc4ccc(O)cc4)CSSC[C@@H](C(=O)O)NC(=O)[C@H](Cc4ccccc4)NC3=O)cc21` [Compound 8T, yFP(cQFK(Tam)FC)] the “stability in blood plasma (in words)” value [1] was “fully stable in blood plasma for 24 h”.

For `CN(C)c1ccc2c(c1)Oc1cc(N(C)C)ccc1C21OC(=O)c2ccc(C(=O)N[C@@H](Cc3ccc(O)cc3)C(=O)N[C@@H](Cc3ccccc3)C(=O)N3CCC[C@H]3C(=O)N[C@@H]3CSCSC[C@@H](C(=O)N[C@@H](Cc4ccccc4)C(=O)N[C@@H](CO)C(=O)O)NC(=O)[C@H](Cc4ccccc4)NC(=O)[C@H](CCC(N)=O)NC3=O)cc21` [Compound 3T, Tam-YFP(c(CH2)QFCFS)], the “stability in blood plasma (in words)” value [1] was “did not improve its resistance to proteolytic degradation”.

For `C[C@@H]1NC(=O)[C@H](Cc2ccccc2)NC(=O)[C@H](CCC(N)=O)NC(=O)[C@H](NC(=O)[C@@H]2CCCN2C(=O)[C@H](Cc2ccccc2)NC(=O)[C@H](Cc2ccc(O)cc2)NC(=O)c2ccc3c(c2)C2(OC3=O)c3ccc(N(C)C)cc3Oc3cc(N(C)C)ccc32)CSCSCC[C@@H](C(=O)O)NC(=O)[C@H](Cc2ccccc2)NC1=O` [Compound 6T, Tam-YFP(c(CH2)QFAFX)], the “stability in blood plasma (in words)” value [1] was “the same stability for 24 h”.

Mtx-GFLGK(Ac)YFP(xQFAFC) [Compound 15] gave an IC50 [2] of 61 nM and an IC50 (HMEC-1 cells) of 2000 nM.

In the case of “GFLGYFP(xQFAFC) (cyclic; GFLG linker) [Compound 11]”, the “pEC50 ± SEM” value (hCMKLR1) is reported as 7.676 ± 0.22 and the EC50 (hCMKLR1) is reported as 21 nM.

In the case of `CN(C)c1ccc2c(c1)Oc1cc(N(C)C)ccc1C21OC(=O)c2ccc(C(=O)N[C@@H](Cc3ccc(O)cc3)C(=O)N[C@@H](Cc3ccccc3)C(=O)N3CCC[C@H]3C(=O)N[C@@H]3CSSC[C@@H](C(=O)N[C@@H](Cc4ccccc4)C(=O)N[C@@H](CO)C(=O)O)NC(=O)[C@H](Cc4ccccc4)NC(=O)[C@H](CCC(N)=O)NC3=O)cc21` [Compound 2T, Tam-YFP(cQFCFS)], the “stability in blood plasma (in words)” value [1] is reported as “only slightly increased stability”.

With `C[C@@H]1NC(=O)[C@H](Cc2ccccc2)NC(=O)[C@H](CCC(N)=O)NC(=O)[C@H](NC(=O)[C@@H]2CCCN2C(=O)[C@H](Cc2ccccc2)NC(=O)[C@H](Cc2ccc(O)cc2)NC(=O)CCOCCOCCOCCOCCN)CCSSC[C@@H](C(=O)O)NC(=O)[C@H](Cc2ccccc2)NC1=O` [Compound 12, EG(4)-YFP(xQFAFC)] the “pEC50 ± SEM” value (hCMKLR1) was 7.766 ± 0.23 and the EC50 (hCMKLR1) was 17 nM.

In the case of `C[C@@H]1NC(=O)[C@H](Cc2ccccc2)NC(=O)[C@H](CCC(N)=O)NC(=O)[C@H](NC(=O)[C@@H]2CCCN2C(=O)[C@H](Cc2ccccc2)NC(=O)[C@H](Cc2ccc(O)cc2)NC(=O)c2ccc3c(c2)C2(OC3=O)c3ccc(N(C)C)cc3Oc3cc(N(C)C)ccc32)CSCSC[C@@H](C(=O)O)NC(=O)[C@H](Cc2ccccc2)NC1=O` [Compound 5T, Tam-YFP(c(CH2)QFAFC)], the “stability in blood plasma (in words)” value [1] is reported as “the same stability for 24 h”.

In the case of Tam-YFPGQFAFS, the cleaved bond (human blood plasma) is reported as “A7-F8, first_seen, 30 min; also recorded: Q5-F6, minor, 30 min; also recorded: P3-G4, major, 30 min”.

For `CN(C)c1ccc2c(c1)Oc1cc(N(C)C)ccc1C21OC(=O)c2ccc(C(=O)NCCCC[C@@H]3NC(=O)[C@H](Cc4ccccc4)NC(=O)[C@H](CCC(N)=O)NC(=O)[C@H](NC(=O)[C@@H]4CCCN4C(=O)[C@H](Cc4ccccc4)NC(=O)[C@@H](N)Cc4ccc(O)cc4)CSSC[C@@H](C(=O)O)NC(=O)[C@H](Cc4ccccc4)NC3=O)cc21` [Compound 7T, YFP(cQFK(Tam)FC)], the “stability in blood plasma (in words)” value [1] was “completely degraded within 60 min”.

In the case of `C[C@@H]1NC(=O)[C@H](Cc2ccccc2)NC(=O)[C@H](CCC(N)=O)NC(=O)[C@H](NC(=O)[C@@H]2CCCN2C(=O)[C@H](Cc2ccccc2)NC(=O)[C@H](Cc2ccc(O)cc2)NC(=O)c2ccc3c(c2)C2(OC3=O)c3ccc(N(C)C)cc3Oc3cc(N(C)C)ccc32)CSSC[C@@H](C(=O)O)NC(=O)[C@H](Cc2ccccc2)NC1=O` [Compound 4T, Tam-YFP(cQFAFC)], the “stability in blood plasma (in words)” value [1] is reported as “remained completely intact for the course of the experiment (24 h)”.

Work on Mtx-GFLGK(Ac)YFPGQFAFS [Compound 14] yielded an IC50 [3] of 345 nM and an IC50 (HMEC-1 cells) of 13000 nM.

Reference: publication PMC8345219 (Cancers, 2021)
